Laboratory results reported in ChEMBL document CHEMBL3886177 (2015).

Target: T1, Nuclear factor NF-kappa-B p105 subunit (Homo sapiens, UniProt P19838)
T1 sequence (P19838 whole entry): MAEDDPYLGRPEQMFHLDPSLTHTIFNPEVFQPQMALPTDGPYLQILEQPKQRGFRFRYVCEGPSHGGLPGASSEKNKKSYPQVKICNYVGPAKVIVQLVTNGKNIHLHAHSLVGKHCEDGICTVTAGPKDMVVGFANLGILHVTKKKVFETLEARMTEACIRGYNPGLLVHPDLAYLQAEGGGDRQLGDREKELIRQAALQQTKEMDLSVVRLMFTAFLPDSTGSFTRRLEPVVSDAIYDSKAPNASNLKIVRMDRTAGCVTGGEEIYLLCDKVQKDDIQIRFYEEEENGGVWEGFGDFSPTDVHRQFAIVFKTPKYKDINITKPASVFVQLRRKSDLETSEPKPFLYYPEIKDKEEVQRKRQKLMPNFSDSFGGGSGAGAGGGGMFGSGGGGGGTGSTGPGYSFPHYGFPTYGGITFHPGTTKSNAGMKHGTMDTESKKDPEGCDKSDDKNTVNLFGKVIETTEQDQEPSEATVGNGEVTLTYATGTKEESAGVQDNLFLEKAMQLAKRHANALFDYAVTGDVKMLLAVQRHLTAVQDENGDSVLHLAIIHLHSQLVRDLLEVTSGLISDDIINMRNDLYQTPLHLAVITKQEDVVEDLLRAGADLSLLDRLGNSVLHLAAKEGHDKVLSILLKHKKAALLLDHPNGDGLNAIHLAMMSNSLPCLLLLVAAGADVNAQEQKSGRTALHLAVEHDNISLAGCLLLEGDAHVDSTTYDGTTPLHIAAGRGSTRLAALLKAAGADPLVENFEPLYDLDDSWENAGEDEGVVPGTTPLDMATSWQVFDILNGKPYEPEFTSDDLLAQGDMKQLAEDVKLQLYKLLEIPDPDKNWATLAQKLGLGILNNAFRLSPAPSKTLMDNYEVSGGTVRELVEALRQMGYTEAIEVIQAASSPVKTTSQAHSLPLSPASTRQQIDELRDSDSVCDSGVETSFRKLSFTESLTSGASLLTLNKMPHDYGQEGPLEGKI
Experiment: Luciferin is added to the cell lysates and the luciferase enzyme catalyzes a cleavage of luciferin leading to the emission of light.

Q: For `COc1cc(/C=C/C(=O)CC(=O)/C=C/c2ccc(O)c(OC)c2)ccc1O` [CURCUMIN], which IC50 is on record?
A: 8.2 µM
